Values quoted from earlier work in patent US10689367B2, “Triazole pyridyl compounds as agonists of the APJ receptor” (AMGEN INC., priority 2016, dated 2020).

Details: in vivo; cited from earlier work

Apelin-13
plasma half-life: < 5 min
